Results on 1 molecule are retold here after ChEMBL document CHEMBL4007512, “Discovery of Selective Phosphodiesterase 1 Inhibitors with Memory Enhancing Properties” (J Med Chem, 2017).

Sequences of proteins named here, by UniProt entry; tags and fusion partners are left off. A change or cut given only in a name is not applied to a line headed by its entry.
UniProt Q01064: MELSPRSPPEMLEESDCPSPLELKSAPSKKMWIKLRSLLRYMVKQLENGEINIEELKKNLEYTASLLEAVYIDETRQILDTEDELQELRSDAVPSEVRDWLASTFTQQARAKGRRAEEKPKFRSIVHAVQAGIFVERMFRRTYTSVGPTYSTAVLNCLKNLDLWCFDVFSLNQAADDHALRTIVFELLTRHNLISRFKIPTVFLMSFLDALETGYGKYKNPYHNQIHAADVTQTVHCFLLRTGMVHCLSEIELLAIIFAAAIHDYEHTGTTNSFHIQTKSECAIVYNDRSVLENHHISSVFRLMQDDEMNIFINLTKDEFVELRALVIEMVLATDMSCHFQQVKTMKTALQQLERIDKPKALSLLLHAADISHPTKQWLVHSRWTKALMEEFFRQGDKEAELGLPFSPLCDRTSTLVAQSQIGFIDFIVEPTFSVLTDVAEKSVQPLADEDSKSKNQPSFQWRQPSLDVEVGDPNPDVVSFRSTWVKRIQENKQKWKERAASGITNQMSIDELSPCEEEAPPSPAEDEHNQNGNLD

The target in the experiment is Dual specificity calcium/calmodulin-dependent 3',5'-cyclic nucleotide phosphodiesterase 1B (Homo sapiens, UniProt Q01064). Put plainly: Inhibition of PDE1B (unknown origin).

As a reminder, the IC50 is the concentration needed to halve the response being measured.

Regarding `CN1C(=O)c2c(nn(Cc3ccc(-c4cccc(F)n4)cc3)c2Nc2ccccc2)N2C1=N[C@@H]1CCC[C@@H]12` [LENRISPODUN PHOSPHATE], the IC50 was determined as 0.058 nM.
